## Yeast mating assay B: variants of the scFv Ab-14

Data: MIT Lincoln Laboratory AlphaSeq set, Li et al. 2023, doi:10.1038/s41467-023-39022-2, as distributed in FLAb.

The target is the same throughout: PDVDLGDISGINAS, from the HR2 region of SARS-CoV-2 spike.

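The parent was found by panning a naive human phage display library on the peptide. These sequences belong to a second round, designed from the earlier measurements on random variants of the parent. Group labels follow the data file (En: ensemble of fine-tuned language models; GP: Gaussian process model; HC: hill climbing; Gen: genetic algorithm; Gibbs: Gibbs sampling; a sequence that several methods proposed may carry one label only). AlphaSeq pools MATa yeast showing the antibodies with MATalpha yeast showing the peptide. Mating (16 h, 30 °C) was followed by selection of diploids and sequencing of their barcodes. A regression on co-assayed BCL2-family reference pairs converts the normalised counts of each replicate to an apparent Kd. Each pool was mated in six replicate cultures.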

The variants keep the heavy chain, the linker and the frameworks of Ab-14 (scFv order VH, a 15-residue (Gly4Ser)3 linker, VL).
VH: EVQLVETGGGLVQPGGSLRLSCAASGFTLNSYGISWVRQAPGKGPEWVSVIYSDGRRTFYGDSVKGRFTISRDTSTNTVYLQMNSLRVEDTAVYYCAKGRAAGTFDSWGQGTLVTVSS
VL: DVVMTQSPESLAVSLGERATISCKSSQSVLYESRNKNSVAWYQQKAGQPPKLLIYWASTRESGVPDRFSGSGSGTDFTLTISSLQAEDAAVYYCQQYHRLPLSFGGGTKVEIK

Variants are written as CDR1, CDR2 and CDR3 of the light chain (limits as in the source). Parent: KSSQSVLYESRNKNSVA, WASTRES, QQYHRLPLS. This list holds designs with more than six substitutions. Scale: log10 of Kd in nM, estimated from mating counts; low values are strong binders. Averages over replicates are reported, and they cover detected replicates only. "no signal" marks a missing value. The strain was present, yet no cells mated with the target were sequenced in any replicate, which points to weak or no binding. The list is sorted by this average, lowest first, undetected variants last. Of ten entries with the parent sequence, four were seen in most replicates (averages 0.34 to 2.37), three in one and three in none, so single entries are noisy. Empty control strains, which show no peptide, gave a signal in 4% of pairings with all light chain designs; the median was 2.64 and 95% of these signals were weaker than 1.59. No background was subtracted. Values of this round are not directly comparable with the first-round values of the same sequences. In the paper, a design with two or fewer of six values counts as a poor binder.

Variant KQSQSDGGEQRNKNSVA | EASTRCE | QQYHRLPLS [GP_Gibbs] gave -0.29 (6 of 6 replicates). With LQSQSELLESRNHNSVA | QASTRMD | QQYHRLPLS [GP_Gibbs] the result was -0.07 (6 of 6 replicates). With KVSIEVWGGDRNKNSVA | DASTRES | QQYHRLPLS [GP_Gibbs] the result was -0.06 (6 of 6 replicates). For KIGQTVTYESTNKNAIA | QMTTRES | QQYHRLPLS [En_HC], the assay gave -0.05 (6 of 6 replicates). Variant KLSSSHLYEERMDNSVA | SASQREM | QQYHRLPLS [GP_Gibbs] gave 0.01 (6 of 6 replicates). For KIGMTLNQLMQKKNNVA | DLVTREN | QQYHRLPLS [En_Gen], the assay gave 0.03 (6 of 6 replicates). With TISQVLNTLAKTGNNVA | DLAEREQ | QQYFRLPLS [En_Gen] the result was 0.20 (6 of 6 replicates). With KLSQQDEYESRNKNSVA | HASCREQ | QQYHRLPLS [GP_Gibbs] the result was 0.21 (6 of 6 replicates).

Variant RFPEHLLMLESKISNIA | NATKTME | QQYFRLPLV [En_Gibbs] gave 0.21 (6 of 6 replicates). Variant TIGQIFNGESRNRNSVA | QASTRES | QSYDRLPLS [En_HC] showed 0.30 (6 of 6 replicates). For TISQLMLYESRNKNNVA | GTSTRES | QCYMRLPLS [En_HC], the assay gave 0.30 (6 of 6 replicates). With QFHSTMAGDQRNVHSIA | NATAAVP | QQYFRLPLS [En_Gibbs] the result was 0.36 (6 of 6 replicates). Variant QLAVDRLQEYKMGAAIA | GKTTRED | QQYARLPLS [En_Gibbs] gave 0.49 (6 of 6 replicates). Variant RLTEHTSERAYADASVA | DASTRND | QQYHRLPLF [En_Gibbs] gave 0.64 (6 of 6 replicates). With TLSNSTDLESVHKNSIA | DLMTRES | QQYHRLPLS [En_HC] the result was 0.75 (6 of 6 replicates). Variant NFSQMVLTGSTLKNSVA | HAETREE | QQYHRLPLI [En_HC] showed 0.76 (6 of 6 replicates).

Variant QLNEYKHETEEKTQNIA | DMTIREP | QQYAHLPLA [En_Gibbs] showed 0.79 (6 of 6 replicates). With SMYPFEVAIGEGTQNVA | HVSVRAL | QQYFRLPLV [En_Gibbs] the result was 0.80 (5 of 6 replicates). With MLSDLVKAGSRNTNSVA | DNSTRGS | QQYDRLPLS [En_HC] the result was 0.82 (6 of 6 replicates). For QFHSHMAGDGDIQHSIA | EADCAEP | QQYFRLPLS [En_Gibbs], the assay gave 0.85 (6 of 6 replicates). For KLRQSTHIESFNKNNVA | EMTTREA | QSYDRLPLS [En_HC], the assay gave 0.93 (6 of 6 replicates). Variant HIQGYFNMPENANNSIA | EKHYRVR | QQYYRLPLA [En_Gibbs] gave 0.98 (6 of 6 replicates). Variant KLSSVTGHLSVEKNNVA | EMETREN | QQYNRLPLS [En_Gen] showed 0.99 (6 of 6 replicates). For TISNVMNTLTRHGNNVA | DLQEREE | QQYFRLPLS [En_Gen], the assay gave 1.01 (6 of 6 replicates).

With KLQQWDLYESRMKNSVA | HASERES | QCYHRLPLS [GP_Gibbs] the result was 1.11 (6 of 6 replicates). Variant KLSMAYRYETEEKNSIA | ELVTRMS | QQYHRLPLS [En_HC] showed 1.19 (6 of 6 replicates). For MLSQMFAIGMKVSNSVA | QVSTRFE | QQYDRLPLI [En_Gen], the assay gave 1.20 (5 of 6 replicates). Variant NLSGMTAHESVKEKNIA | ERSTREQ | QQYNRLPLS [En_Gen] showed 1.23 (6 of 6 replicates). For KISQMVRVGSTHKNSIA | EEATRAK | QQYHRLPLA [En_Gen], the assay gave 1.23 (6 of 6 replicates). With NVRMSLGYVQNVGSAVA | DASQVEM | QQYYTLPLT [En_Gibbs] the result was 1.29 (6 of 6 replicates). For KLYQSTVIESFNKNNVA | EMSTRES | QSYDRLPLS [En_HC], the assay gave 1.35 (6 of 6 replicates). Variant MVTQMAMSGMTNKRSVA | NAETREH | QQYHRLPLI [En_Gen] showed 1.45 (6 of 6 replicates).

With KLFDRTMEEIVNQRAVA | EDNVRSV | QQYSQLPLT [En_Gibbs] the result was 1.45 (6 of 6 replicates). With KSSGSVQYEDRMVNSVA | NASQREE | QQYHRLPLS [GP_Gibbs] the result was 1.47 (6 of 6 replicates). Variant HILQNMTYESRNRNSVA | HQSTRED | QQYHSLPLS [En_HC] gave 1.59 (5 of 6 replicates). Variant SVPSEMNQQQTQVNAVA | GEQHTAR | QQYGRLPLS [En_Gibbs] showed 1.86 (6 of 6 replicates). Variant MIAQMLRGVGQNKNSVA | NAQTRES | QHYHRLPLS [En_HC] showed 2.21 (5 of 6 replicates). With KISGMSNHQSSVHNNVA | ENVTRVQ | QQYFRLPLS [En_Gen] the result was 2.25 (6 of 6 replicates). Variant MIYGAQRELGRAANSIA | DNVTRYS | QQYERLPLS [En_Gen] gave 2.51 (1 of 6 replicates). With KVSEFMRGLMSRKDSIA | DNVTRSN | QQYDRLPLS [En_Gen] the result was 2.78 (4 of 6 replicates).

Variant SIETLSQGMRLNWSAVA | EAHTLYQ | QYYARLPLS [En_Gibbs] showed 3.28 (2 of 6 replicates). For KLTAAQNDYGQNYSAIA | EEVNSLQ | QQYHHLPLS [En_Gibbs], the assay gave no signal (0 of 6 replicates).

Excerpt, the final 3 entries:

Variant KVSEFMRGLMSRKDSIA | DNVTRSN | QQYDRLPLS [En_Gen] showed 2.78 (4 of 6 replicates).
Variant SIETLSQGMRLNWSAVA | EAHTLYQ | QYYARLPLS [En_Gibbs] showed 3.28 (2 of 6 replicates).
Variant KLTAAQNDYGQNYSAIA | EEVNSLQ | QQYHHLPLS [En_Gibbs] showed no signal (0 of 6 replicates).